Measurements taken from US20210139497A1, “THIENOCYCLIC COMPOUND AND SYNTHESIS METHOD THEREFOR AND APPLICATION THEREOF” (SHANGHAI YUYAO BIOTECH LTD., priority 2017, published 2021).

Tested on: mouse bone marrow cells
Conditions: 100 nM PGE2, 8 days, F4/80 and CD11c flow cytometry, FIG. 2

## C[C@H](NC(=O)c1c(Cc2ccc(F)cc2)sc2c1CCOC2)c1ccc(C(=O)O)cc1 [YJ114, (S)-4-(1-(2-(4-fluorobenzyl)-5,7-dihydro-4H-thieno[2,3-c]pyran-3-carboxamido)ethyl)benzoic Acid]
  Effect on generation of GM-CSF/IL-4-induced DC suppressed by PGE2: can abolish the inhibitory effect of PGE2 against the generation of DC
